The record followed here is patent US20040002117A1, “Specific inhibitors of NFAT activation by calcineurin and their use in treating immune-related diseases” (priority 1998, published 2004).

This experiment deals with calcineurin. The experiment is described as follows: cell-based or functional assay.

As to CM2 mutant 26-mer peptide, the inhibition of in vitro dephosphorylation of HA-NFAT1(1-460)-GFP and HA-NFAT4(1-407)-GFP in HEK-293 lysates by calcineurin/calmodulin (100-900 nM) was greater than 400 µM; the inhibition of in vitro dephosphorylation of HA-NFAT1(1-460)-GFP by calcineurin (200 nM) and calmodulin (Western blot) is greater than 400 µM.
